Measured values as given in patent US20090247465A1, “Novel Use of Bivalirudin in the Treatment of Acute Coronary Syndrome” (priority 2008, published 2009).

Test system: patients with moderate and high risk NSTE-ACS
Assay: ACUITY analysis: clinical outcomes at 30 days, consistent UFH/enoxaparin plus GP IIb/IIIa inhibitor vs switch to bivalirudin, and antithrombin-naïve patients
Format: in vivo, human
Settings: for Major bleeding, number of patients / Major bleeding, rate / Transfusion, number of patients / Transfusion, rate / Major bleeding, RR / Transfusion, RR: 30 days
Description: A total of 4215 patients received prior antithrombin therapy with either UFH or enoxaparin before randomization. Of these, 2137 were randomized to receive the same antithrombin plus a GP IIb/IIIa inhibitor (consistent), while 2078 patients were randomized to receive bivalirudin (switch). There were 2889 patients naïve to antithrombin therapy at randomization, and of these, 1462 patients were randomized to UFH/enoxaparin plus a GP IIb/IIIa inhibitor and 1427 to bivalirudin monotherapy (FIG. 1).
At 30 days, there was no difference in composite ischemia between the two groups: 6.9% for patients switched to bivalirudin vs. 7.4% for patients remaining on consistent UFH/enoxaparin ([RR 0.93; 0.75-1.16], p=0.52). […] Transfusions were also lower in the patients switched to bivalirudin vs. patients remaining on consistent UFH/enoxaparin (1.5% vs. 2.6% [RR 0.60; 0.39-0.92], p=0.02). (Table 2, FIG. 2).
Tables 3a and 3b show clinical outcomes according to type of heparin therapy (UFH or enoxaparin) in patients on prior antithrombin therapy and in patients naive to antithrombin therapy. In patients switched from either UFH or enoxaparin to bivalirudin, there were similar rates of composite ischemia and significant reductions in major bleeding; in patients naive to antithrombin therapy, there were similar rates of composite ischemia and significant reductions in major bleeding for those randomized to bivalirudin vs. either UFH or enoxaparin plus a GP IIb/IIIa inhibitor.

[1] = High Risk, naïve to antithrombin therapy
[2] = High Risk, naïve to antithrombin therapy, bivalirudin vs UFH/Enoxaparin
[3] = High Risk, prior antithrombin therapy, consistent vs switch
[4] = High Risk, prior antithrombin therapy, switch bivalirudin vs consistent UFH/Enoxaparin
[5] = PCI, naïve to antithrombin therapy
[6] = PCI, naïve to antithrombin therapy, bivalirudin vs UFH/Enoxaparin
[7] = PCI, prior antithrombin therapy, consistent vs switch
[8] = PCI, prior antithrombin therapy, switch bivalirudin vs consistent UFH/Enoxaparin
[9] = all patients, naïve to antithrombin therapy
[10] = all patients, naïve to antithrombin therapy, bivalirudin vs UFH/Enoxaparin
[11] = all patients, prior antithrombin therapy, consistent vs switch
[12] = all patients, prior antithrombin therapy, consistent vs switch, listed as bivalirudin
[13] = all patients, prior antithrombin therapy, switch bivalirudin vs consistent UFH/Enoxaparin
[14] = naïve to antithrombin therapy, bivalirudin vs UFH
[15] = naïve to antithrombin therapy, bivalirudin vs enoxaparin
[16] = prior UFH: consistent UFH vs switch from UFH to bivalirudin
[17] = prior UFH, switch bivalirudin vs consistent UFH
[18] = prior enoxaparin: consistent enoxaparin vs switch from enoxaparin to bivalirudin
[19] = prior enoxaparin, switch bivalirudin vs consistent enoxaparin

CC[C@H](C)[C@H](NC(=O)[C@H](CCC(=O)O)NC(=O)[C@H](CCC(=O)O)NC(=O)[C@H](Cc1ccccc1)NC(=O)[C@H](CC(=O)O)NC(=O)CNC(=O)[C@H](CC(N)=O)NC(=O)CNC(=O)CNC(=O)CNC(=O)CNC(=O)[C@@H]1CCCN1C(=O)[C@H](CCCNC(=N)N)NC(=O)[C@@H]1CCCN1C(=O)[C@H](N)Cc1ccccc1)C(=O)N1CCC[C@H]1C(=O)N[C@@H](CCC(=O)O)C(=O)N[C@@H](CCC(=O)O)C(=O)N[C@@H](Cc1ccc(O)cc1)C(=O)N[C@@H](CC(C)C)C(=O)O [Bivalirudin, bivalirudin]
Major bleeding, number of patients [1]: 25
Major bleeding, rate [1]: (3.1%)
Transfusion, number of patients [1]: 8
Transfusion, rate [1]: (1.0%)
Major bleeding, RR [2]: 0.53
Transfusion, RR [2]: 0.37
Major bleeding, number of patients [3]: 53
Major bleeding, rate [3]: (3.5%)
Transfusion, number of patients [3]: 30
Transfusion, rate [3]: (2.0%)
Major bleeding, RR [4]: 0.54
Transfusion, RR [4]: 0.67
Major bleeding, number of patients [5]: 22
Major bleeding, rate [5]: (2.6%)
Transfusion, number of patients [5]: 8
Transfusion, rate [5]: (1.0%)
Major bleeding, RR [6]: 0.46
Transfusion, RR [6]: 0.37
Major bleeding, number of patients [7]: 45
Major bleeding, rate [7]: (3.5%)
Transfusion, number of patients [7]: 23
Transfusion, rate [7]: (1.8%)
Major bleeding, RR [8]: 0.52
Transfusion, RR [8]: 0.63
Major bleeding, number of patients [9]: 36
Major bleeding, rate [9]: (2.5%)
Transfusion, number of patients [9]: 15
Transfusion, rate [9]: (1.1%)
Major bleeding, RR [10]: 0.52
Transfusion, RR [10]: 0.44
Major bleeding, number of patients [11]: 59
Major bleeding, rate [11]: (2.8%)
Transfusion, number of patients [11]: 32
Transfusion, rate [11]: (1.5%)
Major bleeding, rate [12]: 2.8%
Transfusion, rate [12]: 1.5%
Major bleeding, RR [13]: 0.49
Transfusion, RR [13]: 0.60
Major bleeding, RR [14]: 0.54
Transfusion, RR [14]: 0.41
Major bleeding, RR [15]: 0.51
Transfusion, RR [15]: 0.47
Major bleeding, number of patients [16]: 37
Major bleeding, rate [16]: (2.8%)
Transfusion, number of patients [16]: 23
Transfusion, rate [16]: (1.8%)
Major bleeding, RR [17]: 0.44
Transfusion, RR [17]: 0.63
Major bleeding, number of patients [18]: 22
Major bleeding, rate [18]: (2.9%)
Transfusion, number of patients [18]: 9
Transfusion, rate [18]: (1.2%)
Major bleeding, RR [19]: 0.58
Transfusion, RR [19]: 0.52
reduction in major bleeding (switching from UFH or enoxaparin to bivalirudin monotherapy vs remaining on UFH/enoxaparin): ~50%
